The values below are quoted from earlier work in patent publication US10450593B2, “Type II fatty acid synthesis enzymes in reverse β-oxidation” (William Marsh Rice University, priority 2014, dated 2019).

This data set deals with T1, FabI (Escherichia coli, UniProt P0AEK4).
T1 sequence (P0AEK4 1-262): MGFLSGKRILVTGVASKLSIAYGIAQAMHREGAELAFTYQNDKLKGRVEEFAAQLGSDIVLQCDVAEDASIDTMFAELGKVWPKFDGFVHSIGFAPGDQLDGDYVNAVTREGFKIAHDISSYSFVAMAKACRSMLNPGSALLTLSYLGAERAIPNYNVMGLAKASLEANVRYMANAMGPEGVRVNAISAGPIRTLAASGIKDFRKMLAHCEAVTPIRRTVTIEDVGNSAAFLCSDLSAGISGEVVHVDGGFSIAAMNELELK
The conditions noted are these: literature, Helmut Bergler 1996; read-out: Ki towards FabI; cited from earlier work.

By Ki is commonly meant the equilibrium dissociation constant of an inhibitor or competing ligand from its target. On to palmitoyl-ACP, for which the Ki was 5.4 µM.
